Results as given in ChEMBL document CHEMBL1641500, “Carbonic anhydrase inhibitors. Inhibition studies with anions and sulfonamides of a new cytosolic enzyme from the scleractinian coral Stylophora pistillata” (Bioorg Med Chem Lett, 2011).

Target: Carbonic anhydrase 6 (Homo sapiens, UniProt P23280)

**Q.** How did the Ki turn out when `[N-]=[N+]=N` was run?
**A.** Its Ki is 70 µM.
